Measured affinities in a library of Ab-95 light chain variants

From the AlphaSeq antibody data of Engelhart et al. 2022 (doi:10.1038/s41597-022-01779-4), copy in the FLAb collection.

The target is the same throughout: PDVDLGDISGINAS, from the HR2 region of SARS-CoV-2 spike.

Parent: Ab-95, a human scFv built as VH, the linker GGGGSGGGGSGGGGS, VL. Only the CDRs of the light chain vary.
VH: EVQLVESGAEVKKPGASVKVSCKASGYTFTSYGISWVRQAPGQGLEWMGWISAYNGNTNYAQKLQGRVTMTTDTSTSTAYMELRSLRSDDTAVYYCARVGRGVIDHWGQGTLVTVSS
VL: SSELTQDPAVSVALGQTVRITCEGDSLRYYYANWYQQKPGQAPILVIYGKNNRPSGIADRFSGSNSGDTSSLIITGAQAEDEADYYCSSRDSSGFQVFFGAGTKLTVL

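Phage display of a naive human antibody library on the peptide gave the parent. The library (AAYL52) carries one to three amino acid substitutions per variant, with no insertions or deletions. The assay is AlphaSeq: two haploid yeast populations carry antibody and antigen on their surface. The frequency of each diploid, read from paired DNA barcodes, reflects how well the two displayed proteins bind. A regression on co-assayed BCL2-family reference pairs converts the normalised counts of each replicate to an apparent Kd. Mating was done three times.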

The parent's light chain CDRs are EGDSLRYYYAN, GKNNRPS, SSRDSSGFQVF; each variant's own CDRs replace them letter for letter.
Every variant below is changed at L27 of the VL (sequential numbering).
Kd is apparent (estimated from mating counts) and averaged on the log scale over replicates with a signal. Smaller is tighter.
Where no diploid with the target was found in any replicate, the entry reads "nd": below detection, most likely a poor binder, though not proof of it.

CDR-L1	CDR-L2	CDR-L3	Kd (apparent)	replicates with signal
EGDSGRYYYAN	GKNERPS	SSDDSSGFQVF	22 µM	1/3
EGDSMKYYYAN	GKNNRPS	SSRDSSGSQVF	750 nM	3/3
EDDSFRYYYIN	GKNNRPS	SSRDSSGFQVF	860 nM	3/3
EGDSVRYYAAN	GKNNRPS	SSRDMSGFQVF	310 nM	3/3
EGDITRYYYAN	GKNNRPS	SSRDLSGFQVF	2.8 µM	2/3
EGDSWRYYYAN	GKNNRPS	SSRCSSGFQVA	nd	0/3
IGDSPRYYYAN	GKNNLPS	SSRDSSGFQVF	1.9 µM	2/3
EGDSWRYYYAN	GKNNRPS	SSGDSSGFQVF	7.0 µM	3/3
NGDSHRYYYAN	GKNNRPS	SSRKSSGFQVF	2.7 µM	3/3
EGGSPRYYYAN	GKNNRPS	SSCDSSGFQVF	3.7 µM	3/3
EGASHRYYYAN	GKNNRPS	SRRDSSGFQVF	3.4 µM	3/3
EGDSGRYYYAN	GKNNSPS	SSWDSSGFQVF	51 µM	1/3
EFDSMRYYYAN	GKNNTPS	SSRDSSGFQVF	36 µM	2/3
EGDNYAYYYAN	GKNNRPS	SSRDSSGFQVF	13 µM	1/3
EGDSWRYYYAN	GKNNRPS	SSRDSSGFDVF	16 µM	1/3
EGDSARQYYAN	GQNNRPS	SSRDSSGFQVF	570 nM	3/3
EGDSHRYYYAN	GKNNRPS	SERDSSGFQVA	27 µM	3/3
ELDSTRYYYAN	GKFNRPS	SSRDSSGFQVF	nd	0/3
SGDSARYYYAN	GKNNRPS	SSRDSSPFQVF	2.1 µM	3/3
EWDYFRYYYAN	GKNNRPS	SSRDSSGFQVF	5.6 µM	3/3

Extract of 2 entries:

CDR-L1	CDR-L2	CDR-L3	Kd (apparent)	replicates with signal
SGDSARYYYAN	GKNNRPS	SSRDSSPFQVF	2.1 µM	3/3
EGDSWRYYYAN	GKNNRPS	SSGDSSGFQVF	7.0 µM	3/3

Background: pairings of library AAYL52 with three empty control strains gave a value in 28% of cases (median 8.2 µM, 5th percentile 800 nM). Values in that range, when seen in few replicates, are hard to tell from nonspecific mating.
For reference, the parent read 200 nM as the reference entry and 180 nM as a member of this library.